Literature values, collected in patent US20240043493A1, “ACYLATED SINGLE-CHAIN INSULIN ANALOGUES” (CASE WESTERN RESERVE UNIVERSITY, priority 2020, published 2024).

Details: for each 10° C. increment in temperature above 25° C.

Substance: Insulin
- increase in degradation rate: ≥ 10 fold
